Values quoted from earlier work as cited in US9133199B2, “Pyrimidine derivatives as protein kinase inhibitors” (Cyclacel Limited, priority 2007, dated 2015).

Target: human PLK1 (Homo sapiens (Human), UniProt P53350)
Conditions: ATP concentration of 10 μM; read-out: IC50, phosphorylation of CDC25C by recombinant PLK1; cited from earlier work

For scytonemin, the IC50 is given as about 2 µM.
